In PubChem BioAssay AID504651 (National Center for Advancing Translational Sciences (NCATS), 2011):
This is a selection; strong and weak results do not stand in their true shares. Calls of active or inactive are those of the source. No stated cut-off is given here; in the data, active means potentiation above about 30%; inactive means the rest.

Amino acid sequences for entries named in this document (tags omitted).
UniProt P21728, whole entry: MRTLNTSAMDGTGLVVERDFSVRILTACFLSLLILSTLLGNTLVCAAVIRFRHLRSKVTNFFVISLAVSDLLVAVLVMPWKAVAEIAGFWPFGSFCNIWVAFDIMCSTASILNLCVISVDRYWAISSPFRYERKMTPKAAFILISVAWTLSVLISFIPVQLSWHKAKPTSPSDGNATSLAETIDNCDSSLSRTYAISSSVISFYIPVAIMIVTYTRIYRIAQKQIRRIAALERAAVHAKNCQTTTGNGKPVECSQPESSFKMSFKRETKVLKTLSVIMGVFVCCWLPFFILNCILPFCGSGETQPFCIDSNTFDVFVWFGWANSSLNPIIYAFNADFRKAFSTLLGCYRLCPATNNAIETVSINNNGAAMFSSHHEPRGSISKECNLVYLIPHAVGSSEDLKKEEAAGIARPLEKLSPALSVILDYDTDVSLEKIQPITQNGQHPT

Each compound was assayed against D(1A) dopamine receptor (Homo sapiens) (UniProt P21728) (assay: Potentiators of Human D1 Dopamine Receptor: qHTS). Settings: HEK293 TREx D1 cells, calcium flux, dopamine EC20 potentiation; at 10 µM; hits give high values.
Further: 0% is about no effect.

Structure (SMILES)	potentiation
O=[N+]([O-])c1ccc2c(c1)C=Nc1ccccc1O2	inactive: -2.75%
Cc1cccc(C)c1OP(C)(N)=O (stereo not drawn)	inactive: -5%
CC(C)(C)c1ccc(OP(C)(=O)Nc2ccc(SC(F)(F)F)cc2)cc1 (stereo not drawn)	inactive: -4.15%
O=[N+]([O-])c1cc([N+](=O)[O-])c(Nc2cccnc2)c([N+](=O)[O-])c1	inactive: -7.65%
Cc1cc(C)cc(OP(C)(N)=O)c1 (stereo not drawn)	inactive: 0.85%
COc1ccc(OP(C)(=O)Nc2cccc(F)c2)cc1 (stereo not drawn)	inactive: 7.38%
COc1ccccc1OP(C)(=O)Nc1cc(Cl)ccc1C (stereo not drawn)	inactive: -1.05%
Cc1ccc(NP(C)(=O)Oc2ccccc2)c(C)c1 (stereo not drawn)	inactive: -3.65%
COc1ccccc1OP(C)(=O)Nc1ccc(C)cc1 (stereo not drawn)	inactive: 6.3%
CCOC(=O)c1ccc(NP(C)(=O)Oc2ccccc2)cc1 (stereo not drawn)	inactive: -0.85%
CCN(CC)CCCOC(=O)C(O)(c1ccccc1)c1ccccc1	inactive: -3%
Cc1cc(C)cc(OP(C)(=O)Nc2ccc(SC(F)(F)F)cc2)c1 (stereo not drawn)	inactive: 3.8%
CCc1ccc(OP(C)(=O)N2CCN(c3ccc([N+](=O)[O-])cc3)CC2)cc1 (stereo not drawn)	inactive: -6.28%
CP(=O)(NC(=O)Nc1ccccc1)Oc1ccccc1 (stereo not drawn)	inactive: -8.4%
CP(=O)(Oc1ccccc1)OC(c1ccccc1)C(F)(F)F (stereo not drawn)	inactive: -3.3%
CP(=O)(Nc1ccc(SC(F)(F)F)cc1)Oc1ccc(Cl)cc1 (stereo not drawn)	inactive: -9.6%
Cc1cccc(C)c1OP(C)(=O)Nc1ccc(SC(F)(F)F)cc1 (stereo not drawn)	inactive: -3.65%
CP(=O)(Nc1ccccn1)Oc1ccc(Cl)cc1 (stereo not drawn)	inactive: -6.3%
CCOC(=O)c1ccc(NP(C)(=O)Oc2ccc(OC)cc2)cc1 (stereo not drawn)	inactive: 4.9%
CCOP(C)(=S)SCC(=O)NC(C)C(=O)O (stereo not drawn)	inactive: 3.45%
CP(=O)(Nc1ccccc1Br)Oc1ccccc1 (stereo not drawn)	inactive: 2.1%
COc1ccccc1OP(C)(=O)Nc1ccccc1 (stereo not drawn)	inactive: 7.45%
CP(=S)(Nn1cnnc1)Oc1ccccc1 (stereo not drawn)	inactive: -3.75%
